Data on one compound can be found in ChEMBL document CHEMBL1129267, “Aryl 1-but-3-ynyl-4-phenyl-1,2,3,6-tetrahydropyridines as potential antipsychotic agents: synthesis and structure-activity relationships” (J Med Chem, 1996).

By UniProt entry, the sequences of proteins in these tests, tags left out.
UniProt P61169, whole entry: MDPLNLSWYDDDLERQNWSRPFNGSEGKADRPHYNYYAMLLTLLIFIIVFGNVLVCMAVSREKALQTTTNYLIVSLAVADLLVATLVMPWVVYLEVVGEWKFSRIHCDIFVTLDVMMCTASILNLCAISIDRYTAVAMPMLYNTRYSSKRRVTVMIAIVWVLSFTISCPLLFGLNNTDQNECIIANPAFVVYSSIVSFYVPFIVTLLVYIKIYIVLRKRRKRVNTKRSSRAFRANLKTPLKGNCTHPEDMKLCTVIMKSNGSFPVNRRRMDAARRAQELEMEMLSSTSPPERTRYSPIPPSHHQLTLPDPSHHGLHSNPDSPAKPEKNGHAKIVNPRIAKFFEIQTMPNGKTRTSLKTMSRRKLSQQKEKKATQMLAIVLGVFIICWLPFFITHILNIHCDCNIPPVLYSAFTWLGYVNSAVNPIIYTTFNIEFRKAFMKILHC

In the assay the target is D(2) dopamine receptor (Rattus norvegicus, UniProt P61169). Description: Binding affinity at Dopamine receptor D2 in rat striatal membrane by [3H]spiperone displacement. Format: cell membranes, Striatum. A digest of the protocol:
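Rat striatal membranes; [³H]spiperone 0.2 nM final; nonspecific binding defined with (+)-butaclamol 1.0 µM final. Four to six concentrations, each run in triplicate; Ki obtained by nonlinear regression analysis.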

The structures appear in SMILES notation.

Broadly, the Ki is the dissociation constant of the complex between target and ligand, obtained from inhibition or displacement. Read a high Ki as a looser hold on the target.

`C(#Cc1cnc2ccccc2c1)CCCN1CC=C(c2ccccc2)CC1` came in with a Ki of 40 nM.
